Assay: excess molar enthalpy (molar enthalpy of mixing); xn = mol fraction of the nth substance listed
Settings: 101 kPa, Liquid, Flow calorimetry

CCCCOCCCC [dibutyl ether] + CCCCO
excess molar enthalpy [kcal/mol]
Settings | 298.15 K | 313.15 K
x1 = 0.0501 | 0.0285 | 0.034
x1 = 0.1002 | 0.0564 | –
x1 = 0.1003 | – | 0.0667
x1 = 0.1497 | 0.0823 | –
x1 = 0.1498 | – | 0.0972
x1 = 0.2003 | 0.107 | –
x1 = 0.2004 | – | 0.126
x1 = 0.2502 | – | 0.152
x1 = 0.2503 | 0.129 | –
x1 = 0.3004 | 0.149 | 0.175
x1 = 0.3497 | – | 0.196
x1 = 0.3498 | 0.167 | –
x1 = 0.4004 | – | 0.214
x1 = 0.4006 | 0.182 | –
x1 = 0.4505 | – | 0.228
x1 = 0.4507 | 0.195 | –
x1 = 0.4995 | – | 0.238
x1 = 0.4997 | 0.204 | –
x1 = 0.5503 | – | 0.246
x1 = 0.5506 | 0.21 | –
x1 = 0.5994 | – | 0.25
x1 = 0.5998 | 0.213 | –
x1 = 0.6502 | – | 0.249
x1 = 0.6505 | 0.213 | –
x1 = 0.6997 | – | 0.243
x1 = 0.7 | 0.209 | –
x1 = 0.7506 | – | 0.231
x1 = 0.7509 | 0.199 | –
x1 = 0.7998 | – | 0.214
x1 = 0.8 | 0.185 | –
x1 = 0.8499 | – | 0.186
x1 = 0.8501 | 0.162 | –
x1 = 0.8993 | – | 0.147
x1 = 0.8994 | 0.13 | –
x1 = 0.9493 | 0.0789 | –
x1 = 0.9494 | – | 0.087

CCCCOCCCC [dibutyl ether] + c1ccccc1
Settings | excess molar enthalpy [kcal/mol]
298.15 K, x1 = 0.0499 | 0.0238
298.15 K, x1 = 0.1001 | 0.0425
298.15 K, x1 = 0.1502 | 0.0565
298.15 K, x1 = 0.2002 | 0.067
298.15 K, x1 = 0.3003 | 0.0788
298.15 K, x1 = 0.4003 | 0.0815
298.15 K, x1 = 0.5 | 0.0775
298.15 K, x1 = 0.6 | 0.0683
298.15 K, x1 = 0.6992 | 0.0554
298.15 K, x1 = 0.7997 | 0.0389
298.15 K, x1 = 0.9 | 0.0202
313.15 K, x1 = 0.0504 | 0.0222
313.15 K, x1 = 0.0994 | 0.0393
313.15 K, x1 = 0.1501 | 0.0526
313.15 K, x1 = 0.1993 | 0.0622
313.15 K, x1 = 0.2494 | 0.0691
313.15 K, x1 = 0.3001 | 0.0737
313.15 K, x1 = 0.3493 | 0.0759
313.15 K, x1 = 0.4001 | 0.0764
313.15 K, x1 = 0.4504 | 0.0753
313.15 K, x1 = 0.4998 | 0.0727
313.15 K, x1 = 0.5501 | 0.069
313.15 K, x1 = 0.5985 | 0.0642
313.15 K, x1 = 0.65 | 0.0583
313.15 K, x1 = 0.699 | 0.0517
313.15 K, x1 = 0.751 | 0.0443
313.15 K, x1 = 0.7996 | 0.0363
313.15 K, x1 = 0.851 | 0.0278
313.15 K, x1 = 0.8982 | 0.0192
313.15 K, x1 = 0.9515 | 0.00906

— the NIST ThermoML archive (doi:10.1016/j.fluid.2009.06.015)
